# Cyclic peptide permeability, from CycPeptMPDB

Source: CycPeptMPDB (Li et al. 2023), which took these values from Naylor et al. 2018, doi:10.1021/acs.jmedchem.8b01259.

PAMPA is the parallel artificial membrane permeability assay, which has no cells and reads passive diffusion.
RRCK values come from monolayers of low-efflux MDCK cells.
Values are log10 P with P in cm/s, so -5 is more permeable than -7.

CC(C)C[C@@H]1NC(=O)[C@H](Cc2ccc(O)cc2)N(C)C(=O)[C@H]2CCCN2C(=O)[C@H](CC(C)C)NC(=O)[C@H](CC2CCCCC2)N(C)C(=O)[C@@H](CC(C)C)N(C)C1=O has PAMPA -6.18 (log10 cm/s) and RRCK -5.63 (log10 cm/s). For CC(C)C[C@@H]1NC(=O)[C@H](Cc2ccccc2)N(C)C(=O)[C@H]2CCCN2C(=O)[C@H](CC(C)C)NC(=O)[C@H](CC(C)C)N(C)C(=O)[C@@H](C)N(C)C1=O the data give PAMPA -5.03 (log10 cm/s) and RRCK -4.52 (log10 cm/s). For CC[C@@H]1C(=O)N(C)[C@@H](CC2CCCCC2)C(=O)N[C@@H](CC2CCCCC2)C(=O)N2CCC[C@@H]2C(=O)N(C)[C@@H](Cc2ccc(O)cc2)C(=O)N[C@@H](CC(C)C)C(=O)N1C the data give PAMPA -6.67 (log10 cm/s) and RRCK -5.90 (log10 cm/s). CC[C@H]1C(=O)N[C@@H](CC(C)C)C(=O)N2CCC[C@@H]2C(=O)N(C)[C@@H](Cc2ccccc2)C(=O)N[C@@H](CC(C)C)C(=O)N(C)[C@H](C)C(=O)N1C has RRCK -4.62 (log10 cm/s). The entry for CC[C@@H]1C(=O)N(C)[C@@H](CC)C(=O)N[C@@H](CC(C)C)C(=O)N2CCC[C@@H]2C(=O)N(C)[C@@H](Cc2ccc(O)cc2)C(=O)N[C@@H](CC(C)C)C(=O)N1C lists PAMPA -5.10 (log10 cm/s) and RRCK -4.78 (log10 cm/s). The entry for CC[C@@H]1C(=O)N(C)[C@@H](CC(C)C)C(=O)N[C@@H](CC(C)C)C(=O)N2CCC[C@@H]2C(=O)N(C)[C@@H](Cc2ccccc2)C(=O)N[C@@H](CC(C)C)C(=O)N1C lists PAMPA -5.36 (log10 cm/s) and RRCK -4.51 (log10 cm/s). CC(C)C[C@@H]1NC(=O)[C@H](Cc2ccc(O)cc2)N(C)C(=O)[C@H]2CCCN2C(=O)[C@H](CC2CCCCC2)NC(=O)[C@H](CC2CCCCC2)N(C)C(=O)[C@@H](CC(C)C)N(C)C1=O is reported with PAMPA -7.13 (log10 cm/s) and RRCK -6.50 (log10 cm/s).

The entry for CC[C@@H]1NC(=O)[C@@H](CC)NC(=O)[C@H](CC(C)C)NC(=O)[C@H](Cc2ccccc2)NC(=O)[C@H]2CCCN2C(=O)[C@H](CC(C)C)NC1=O lists PAMPA -5.87 (log10 cm/s) and RRCK -5.39 (log10 cm/s). Listed for CC(C)C[C@@H]1NC(=O)[C@H](CC(C)C)N(C)C(=O)[C@@H](C)N(C)C(=O)[C@H](CC(C)C)NC(=O)[C@H](Cc2ccccc2)N(C)C(=O)[C@@H](C)N(C)C1=O: PAMPA -5.07 (log10 cm/s) and RRCK -4.64 (log10 cm/s). For CCC[C@@H]1C(=O)N(C)[C@@H](CC2CCCCC2)C(=O)N[C@@H](CC2CCCCC2)C(=O)N2CCC[C@@H]2C(=O)N(C)[C@@H](Cc2ccccc2)C(=O)N[C@@H](CC(C)C)C(=O)N1C the data give RRCK -6.49 (log10 cm/s). The entry for CC(C)C[C@@H]1NC(=O)[C@H](CC(C)C)N(C)C(=O)[C@@H](CC(C)C)N(C)C(=O)[C@H](C)NC(=O)[C@H](Cc2ccccc2)N(C)C(=O)[C@H]2CCCN2C1=O lists PAMPA -5.03 (log10 cm/s) and RRCK -4.60 (log10 cm/s). CC(C)C[C@@H]1NC(=O)[C@H](C)N(C)C(=O)[C@H]2CCCN2C(=O)[C@H](CC(C)C)NC(=O)[C@H](C)N(C)C(=O)[C@@H](C)N(C)C1=O has PAMPA -5.95 (log10 cm/s) and RRCK -5.31 (log10 cm/s). CC[C@H]1NC(=O)[C@H](CC(C)C)NC(=O)[C@H](Cc2ccc(O)cc2)NC(=O)[C@H]2CCCN2C(=O)[C@H](CC2CCCCC2)NC(=O)[C@H](CC2CCCCC2)NC1=O is reported with PAMPA -5.09 (log10 cm/s) and RRCK -5.84 (log10 cm/s). CC[C@@H]1C(=O)N(C)[C@@H](CC(C)C)C(=O)N[C@@H](CC(C)C)C(=O)N2CCC[C@@H]2C(=O)N(C)[C@@H](CC2CCCCC2)C(=O)N[C@@H](CC(C)C)C(=O)N1C is reported with PAMPA -6.10 (log10 cm/s) and RRCK -4.90 (log10 cm/s).

CC(C)C[C@@H]1NC(=O)[C@H](C)N(C)C(=O)[C@H]2CCCN2C(=O)[C@H](CC(C)C)NC(=O)[C@H](CC(C)C)N(C)C(=O)[C@@H](CC(C)C)N(C)C1=O has PAMPA -5.09 (log10 cm/s) and RRCK -4.60 (log10 cm/s). For CC(C)C[C@@H]1NC(=O)[C@H](Cc2ccc(O)cc2)N(C)C(=O)[C@H]2CCCN2C(=O)[C@H](CC(C)C)NC(=O)[C@H](C)N(C)C(=O)[C@@H](C)N(C)C1=O the data give PAMPA -5.49 (log10 cm/s) and RRCK -5.66 (log10 cm/s). CC[C@H]1NC(=O)[C@H](CC(C)C)NC(=O)[C@H](Cc2ccccc2)NC(=O)[C@H]2CCCN2C(=O)[C@H](CC(C)C)NC(=O)[C@H](C)NC1=O has PAMPA -6.14 (log10 cm/s) and RRCK -5.53 (log10 cm/s). CC(C)C[C@@H]1NC(=O)[C@H](Cc2ccccc2)N(C)C(=O)[C@H]2CCCN2C(=O)[C@H](CC2CCCCC2)NC(=O)[C@H](CC2CCCCC2)N(C)C(=O)[C@@H](CC(C)C)N(C)C1=O is reported with PAMPA -7.85 (log10 cm/s) and RRCK -6.96 (log10 cm/s). For CC(C)C[C@@H]1NC(=O)[C@H](Cc2ccccc2)NC(=O)[C@H]2CCCN2C(=O)[C@H](CC(C)C)NC(=O)[C@H](CC2CCCCC2)NC(=O)[C@@H](CC(C)C)NC1=O the data give PAMPA -5.06 (log10 cm/s) and RRCK -5.02 (log10 cm/s). CC[C@@H]1C(=O)N(C)[C@@H](CC(C)C)C(=O)N[C@@H](CC(C)C)C(=O)N2CCC[C@@H]2C(=O)N(C)[C@@H](Cc2ccc(O)cc2)C(=O)N[C@@H](CC(C)C)C(=O)N1C is reported with PAMPA -5.09 (log10 cm/s) and RRCK -4.79 (log10 cm/s). The entry for CC(C)C[C@@H]1NC(=O)[C@H](C)N(C)C(=O)[C@H]2CCCN2C(=O)[C@H](CC(C)C)NC(=O)[C@H](C)N(C)C(=O)[C@@H](CC(C)C)N(C)C1=O lists PAMPA -5.05 (log10 cm/s) and RRCK -4.75 (log10 cm/s).

2 of these entries, quoted again:

SMILES	PAMPA (log10 cm/s)	RRCK (log10 cm/s)
CC(C)C[C@@H]1NC(=O)[C@H](CC(C)C)N(C)C(=O)[C@@H](CC(C)C)N(C)C(=O)[C@H](C)NC(=O)[C@H](Cc2ccccc2)N(C)C(=O)[C@H]2CCCN2C1=O	-5.03	-4.60
CC(C)C[C@@H]1NC(=O)[C@H](C)N(C)C(=O)[C@H]2CCCN2C(=O)[C@H](CC(C)C)NC(=O)[C@H](C)N(C)C(=O)[C@@H](CC(C)C)N(C)C1=O	-5.05	-4.75

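Lipid, pH, incubation time, direction and concentration are not recorded in the data file. Other peptides of the study may be missing here. Peptides that the database sets to -10, its floor, are left out.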